Screens as filed in PubChem.
PTHR1 ag = agonists of human PTHR1 parathyroid hormone receptor. HEK293 GP2 PTHR1 cells, GloSensor cAMP luminescence, 1 h. Potency, µM (highest dose often 115 µM), for inactives: at the top dose activation, most hits filed as activators. 0.075% of 410,000 active. Q03431. AID 743266; also: potency is read from the fitted curve at half-maximal effect; nearly all actives have a fitted effect of over 55% in size
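HEK-293-derived GP2 cells expressing PTHR1 and a GloSensor cAMP reporter, 3,000/well, plated overnight, given luciferin plus IBMX (each 0.5 mM as added) for 1 h at 37 °C, then compound for 1 h at 37 °C. Luminescence was read after 15 min at room temperature.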
Eya2 inh = Eya2 (human) phosphatase inhibition | recombinant Eya2, OMFP fluorescence dephosphorylation (OMFP is methylfluorescein phosphate) | Potency, µM (titrated, usually from 76.9 µM), inactives show top-dose activity, negative = inhibition, most hits filed as inhibitors | 0.006% of 330,000 active; also: potency is read from the fitted curve at half-maximal effect; % is scaled to controls: 0 for no effect and ±100 for the full control effect
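Eya2 protein (added as 0.2 uM solution) was preincubated with compound for 10 min at ambient temperature in 50 mM HEPES pH 7.5, 50 mM NaCl, 5 uM MgCl2, 0.05% BSA, 1 mM DTT. OMFP (added at 50 uM) then reacted 10 min; fluorescence read at 485/525 nm.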
USP2a inh = inhibitors of human ubiquitin-specific protease USP2a; O75604; USP2 core, Ub-CHOP2 coupled fluorogenic reporter, 485/531; Potency, µM (titrated, usually from 38.3 µM), without a hit: top-dose activity change, negative = inhibition, usual class: inhibitors; 0.01% of 330,000 active;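 also: potency is read from the fitted curve at half-maximal effect; plate controls were DMSO wells for no effect and full inhibition by NEM control for full effect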
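Deubiquitinase activity read as fluorescence (485/531 nm) after Ub-CHOP2 cleavage activates the enterokinase reporter on its substrate; USP2 core 10nM, Ub-CHOP2 and substrate 25nM each, 30min compound preincubation then 60min RT; data normalized to NEM, curves fitted.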
TSG101-PTAP inh = blocks PTAP/TSG101 interaction to inhibit HIV-1 budding; Potency, µM (highest dose often 115 µM), without a hit: at the top dose activity change, negative = inhibition, hits mostly inhibitors; AID 493005; 340,000 tested, under 10 active; Fluorescence polarization, FITC-PTAP peptide / Tsg101 binding; active = well fitted inhibition curve with a large enough effect in the main read-out, with a control signal flat, not every such curve was filed as active; inconclusive = small, poorly fitted or top-dose-only effect, or effect the other way, or a change in a side signal; inactive = no such curve, though single readings can be large or run the other way; also: potency is read from the fitted curve at half-maximal effect; % of control where 0% means no effect
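Compounds were pin-transferred onto Tsg101 binding domain (10 uM final) in HEPES pH 7.5 buffer, then FITC-PTAP peptide was added at 50 nM final. After 20 min at RT, polarization reported peptide displacement across a qHTS concentration series.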
miR-21 reporter = raises the signal of a miR-21 reporter; AID 2288; 340,000 tested, under 10 active; Potency, µM (doses to about 38.3 µM), inactives show at the top dose reporter change, positive = more light; HeLa miR-21 FLuc reporter, luciferase, 48 h; active = well fitted rising curve with a large enough effect; inconclusive = small, poorly fitted or top-dose-only effect; inactive = no such curve, though single readings can be large or run the other way;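 note: % of control where 0% means no effect; miR-21 action dims this reporter so a rising signal means less miR-21 action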
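Compounds were titrated across several concentrations (up to approximately 40 uM) and incubated 48 hours with HeLa miR-21-FLuc reporter cells (miR-21 target sequence downstream of FLuc, endogenous miR-21). Readout was firefly luciferase luminescence after lytic detection reagent.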
GLS inhibitor = inhibitors of human glutaminase (GLS) | Potency, µM (doses to about 45.5 µM), for inactives: top-dose activity change, negative = inhibition, actives largely listed as inhibitors | 0.21% of 410,000 active | GLS enzymatic activity, qHTS titration | O94925; also: potency is read from the fitted curve at half-maximal effect; % is scaled to controls: 0 for no effect and ±100 for the full control effect
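Enzyme dispensed in phosphate buffer (45 mM, pH 8.2, 0.02% Tween-20), compounds pinned in, then 1 mM L-glutamine solution and the glutamate oxidase–HRP–Amplex Red mix added; fluorescence read immediately and again after 30 min at room temperature.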
* = called active by the depositor; i = inactive; ? = inconclusive; . = no result. Most compounds without a hit are left out; they make up all but 0.24% or so of the library. Unless noted, calls follow the shape of the dose curve; as a rule, active = well fitted curve in the direction sought with a large enough effect; inconclusive = small, poorly fitted or top-dose-only effect, or another doubt; inactive = no such curve, though single readings can be large; an effect the other way counts as inactive or inconclusive.

#	Structure	PTHR1 ag	Eya2 inh	USP2a inh
1	CC(C)C[C@H](NC(=O)[C@@H]1Cc2c([nH]c3ccccc23)C2c3ccccc3C(=O)N21)C(=O)N1CCC[C@@H]1C(=O)O (some centres not stated)	i	-18%	1%
2	CC(C)OCCCn1c(=O)c2ccccc2n2c(-c3ccccc3)nnc12	i	.	.
3	CC(C)(C)c1cc(CCC(=O)NCCc2ccccn2)cc(C(C)(C)C)c1O	-14%	-4%	-1%
4	CSc1ccc(NC(N)=S)cc1	i	-18%	0%
5	CN(C)c1ccc(NC(N)=S)cc1	-24%	-6%	5%
6	CC(C)Cn1cc(NC(=O)NCc2cccc(Cl)c2)c2ccccc2c1=O	-3%	.	.
7	COc1ccc2[nH]c(=O)cc(C(=O)O)c2c1	-18%	-1%	0%
8	Cc1onc(-c2ccccc2)c1C(=O)N[C@@H]1C(=O)N2[C@@H](C(=O)O)C(C)(C)S[C@@H]12	.	.	.
9	Cc1cc(N2CCN(C)CC2)nc2ccc(NC(=O)c3ccc(C(C)(C)C)cc3)cc12	-18%	.	.
10	COc1ccc(CNC(=O)c2ccc(CNS(=O)(=O)c3ccc(F)cc3)cc2)cc1	-3%	.	.
11	O=C(CN1CCN(c2ccccc2F)CC1)NC(=O)NC1CCCCC1	-18%	-14%	2%
12	O=C(CN1CCN(c2ccccc2O)CC1)NC(=O)NC1CCCC1	-4%	-1%	-1%
13	CCN(c1ccc(C)cc1C)S(=O)(=O)c1nnc(NC(=O)c2ccccc2OC)s1	-43%	.	.
14	Cc1cc2n(n1)CCC(=O)N2Cc1ccc(C(=O)Nc2ccc(F)cc2F)cc1	-45%	.	.
15	Cc1cccc(CS(=O)(=O)CC2Nc3ccc(C(=O)NCc4ccccc4)cc3NC2=O)c1 (configuration not stated)	-21%	.	.

#	TSG101-PTAP inh	miR-21 reporter	GLS inhibitor
1	-17%	-2%	13µM*
2	.	?	4%
3	0%	8%	10µM*
4	1%	0%	-2%
5	0%	-15%	14µM*
6	.	-1%	-2%
7	-2%	0%	14µM*
8	.	.	-7%
9	.	6.6µM*	22%
10	.	-4%	5%
11	-7%	.	4%
12	-1%	-1%	2.8µM*
13	.	-6%	0%
14	.	12%	1%
15	.	-13%	10µM*

Single records, from the list above. Values in the order: PTHR1 ag	Eya2 inh	USP2a inh	TSG101-PTAP inh	miR-21 reporter	GLS inhibitor
Results for CCN(c1ccc(C)cc1C)S(=O)(=O)c1nnc(NC(=O)c2ccccc2OC)s1 → -43%	.	.	.	-6%	0%
Results for COc1ccc(CNC(=O)c2ccc(CNS(=O)(=O)c3ccc(F)cc3)cc2)cc1 → -3%	.	.	.	-4%	5%
Results for O=C(CN1CCN(c2ccccc2F)CC1)NC(=O)NC1CCCCC1 → -18%	-14%	2%	-7%	.	4%

Further records
#	Structure	PTHR1 ag	Eya2 inh	USP2a inh
16	CC(C)CCNC(=O)c1ccc2c(c1)NC(=O)C(CS(=O)(=O)Cc1ccc(F)cc1)N2 (configuration not stated)	i	.	.
17	c1ccc(-c2nnc(-c3ccco3)o2)cc1	-15%	11%	0%
18	c1coc(-c2nnc(-c3ccco3)nn2)c1	-10%	-15%	0%
19	COc1cc(Cn2c(=O)sc3ccccc32)ccc1OCCC(C)C	-20%	.	.
20	Cc1nc2ccccc2n1CC(O)Cn1c2ccccc2c2ccccc21 (configuration not stated)	16µM*	5%	5%
21	Oc1c(CN2CCc3ccccc3C2)cc(Cl)c2cccnc12	22µM*	1%	-9%
22	CCCOCc1cc(CN2CCN(c3cccc(Cl)c3)CC2)c(O)c2ncccc12	i	.	.
23	Oc1c(Cl)cc(CN2CCOCC2)c2cccnc12	-1%	-8%	1%
24	CN1CCN(Cc2cc(COCc3ccccc3)c3cccnc3c2O)CC1	i	1%	-8%
25	O=S(=O)(O)OCC1OC(COS(=O)(=O)O)(C2(OS(=O)(=O)O)OC(CO)C(OS(=O)(=O)O)C(OS(=O)(=O)O)C2OS(=O)(=O)O)C(OS(=O)(=O)O)C1OS(=O)(=O)O (configuration not stated)	.	.	.
26	CCN1C(=O)CC(NC2CCN(C(=O)c3ccc(F)cc3)CC2)C1=O (configuration not stated)	-24%	10%	1%

#	TSG101-PTAP inh	miR-21 reporter	GLS inhibitor
16	.	-1%	13µM*
17	-7%	-48%	-13%
18	0%	-41%	7.9µM*
19	.	-9%	-4%
20	-8%	-10%	-3%
21	-11%	23%	3%
22	.	?	1%
23	-3%	.	10%
24	-5%	15%	4µM*
25	.	.	5%
26	0%	0%	-1%
